US20110189164A1, “Peptide Stabilizer Compounds and Screening Method” (Isogenica Ltd, priority 2005, published 2011)

The sequences below were run against Human Thrombin (Homo sapiens, UniProt P00734). Settings: control FLAG epitope-thrombin substrate sequence.
Protocol: The values represent ((OD450 nm reading after incubation with thrombin)/(OD450 nm reading after incubation without thrombin)) expressed as a percentage. 100% indicates complete protection from thrombin cleavage.
Recovered DNA from the fifth round of selection was amplified using PCR, purified and digested with NotI and NcoI. The DNA was then ligated into a similarly digested M13 gpIII phagemid vector and transformed into E. coli XL-1 blue cells, and plated on 2% glucose, 2×TY, 100 μg/ml ampicillin plates. Individual colonies were grown for the production of phage particles as previously described (Odegrip et al Proc. Natl. Acad. Sci USA 101 2806-2810 (2004)). NUNC Maxisorp plates were coated with 100 ng/well of anti-FLAG M2 antibody in PBS overnight at 4° C. ELISA assays were performed with bound phage being incubated for 1 hour in 2% BSA in PBS, +/−Human Thrombin (0.1 unit/ml). The assay was developed with SureBlue TMB peroxidase substrate (Insight Biotechnology, Middlesex, UK) and read at 450 nm.

Row | Sequence | anti-FLAG binding after one hours incubation in thrombin
1 | DYKDDDRSGGSGLGPRSG [SEQID 002, reference compound] | no anti-FLAG binding

Same assay, conditions: fifth round selected peptides; 1 hour incubation +/- Human Thrombin 0.1 unit/ml; anti-FLAG ELISA OD450

Row | Sequence | Thrombin resistant
2 | QKPNHDTERELD [SEQID 033] | resistant
3 | HNVNPNQPHNDT [SEQID 009] | resistant
4 | RAGELGAPADPD [SEQID 032] | resistant
5 | RFVSDHNITAAD [SEQID 025] | resistant
6 | QPHNHPRPIKQH [SEQID 026] | resistant
7 | VPTSTYAITDPT [SEQID 010] | resistant
8 | TDCSHNPTDPCE [SEQID 031] | resistant
9 | ATGPIPHTPQGS [SEQID 023] | resistant
10 | HPHHPSNQAPTD [SEQID 013] | resistant
11 | SRHRTNAGETDH [SEQID 022] | resistant
12 | TDPPANDNAQPH [SEQID 024] | resistant
13 | HYPPPSTPYTTD [SEQID 003] | resistant
14 | VNFAATSSNDRD [SEQID 015] | resistant
15 | PTPTNPPQSAAD [SEQID 004] | resistant
16 | PTPSHSTHRDPE [SEQID 012] | resistant
17 | ESPRPPARPPND [SEQID 005] | resistant
18 | AAPDETTTPNRD [SEQID 014] | resistant
19 | PNRNFQQNTNHN [SEQID 007] | resistant
20 | NHPTTNDGPSVK [SEQID 006] | resistant
21 | PTMTRPSNTEAE [SEQID 011] | resistant
22 | TNFSKDEQPTPD [SEQID 019] | resistant
23 | MTMGTRPTRDTH [SEQID 017] | resistant
24 | VNKQTTASQAHH [SEQID 018] | resistant
25 | PATNPHTNSNAN [SEQID 008] | resistant
26 | GRPATAPCTHGN [SEQID 020] | resistant
27 | DRSRASTRRDRH [SEQID 021] | resistant
28 | HDGRPPQHHHPH [SEQID 016] | resistant
